Source: US10947234B2, “PRMT5 inhibitors” (Merck Sharp & Dohme Corp., priority 2017, dated 2021)
Read-outs that look alike come from different tables or passages of the source.

By UniProt entry, the sequences of proteins in these tests, tags left out.
UniProt O14744, whole entry: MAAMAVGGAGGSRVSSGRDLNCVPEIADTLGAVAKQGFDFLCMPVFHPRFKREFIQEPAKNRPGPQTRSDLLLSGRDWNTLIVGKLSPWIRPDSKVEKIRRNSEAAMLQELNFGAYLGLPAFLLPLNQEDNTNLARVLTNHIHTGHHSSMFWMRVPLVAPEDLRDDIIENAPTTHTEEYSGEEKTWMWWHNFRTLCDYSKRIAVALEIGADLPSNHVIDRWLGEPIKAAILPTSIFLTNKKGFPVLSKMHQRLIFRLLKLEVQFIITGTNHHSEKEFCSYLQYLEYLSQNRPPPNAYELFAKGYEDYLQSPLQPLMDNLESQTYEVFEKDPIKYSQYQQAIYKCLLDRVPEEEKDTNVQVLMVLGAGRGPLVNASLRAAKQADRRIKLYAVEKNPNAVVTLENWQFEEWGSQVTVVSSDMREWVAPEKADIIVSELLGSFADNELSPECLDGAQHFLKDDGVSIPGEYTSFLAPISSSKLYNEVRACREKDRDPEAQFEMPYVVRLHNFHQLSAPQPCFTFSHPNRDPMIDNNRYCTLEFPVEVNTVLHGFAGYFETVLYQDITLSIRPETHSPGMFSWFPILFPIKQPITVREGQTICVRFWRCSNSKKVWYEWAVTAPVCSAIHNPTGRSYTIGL

Assays:
PRMT5 = PRMT5 (Homo sapiens (Human), UniProt O14744); assay: PRMT5 Cell Target Engagement (TE) Assay; assay type: cell-based; details: MCF-7 cells, 3 days treatment, nuclear SDMA by high content imaging; top compound concentration 10000 nM
Description: PRMT5 Cell Target Engagement (TE) Assay
The PRMT5 TE assay is a biomarker assay for identifying compounds that inhibit symmetric dimethylation of arginine (SDMA) of PRMT5 substrates. This assay detects symmetrically dimethylated nuclear proteins using high content imaging technology. Detection of the expression of symmetrically dimethylated nucleo proteins is through a mixture of primary rabbit monoclonal antibodies to SDMA (CST 13222), which in turn recognized by an Alexafluor 488 dye-conjugated anti-rabbit IgG secondary antibody. The IN Cell Analyzer 2200 measures nuclear Alexafluor 488 fluorescent dye intensity that is directly related to the level of expression of symmetrically dimethylated nuclear proteins at the single cell level. Nuclear AF488 dye intensities are compared to the mean value for DMSO treated cells […] to report percent of inhibition for each compound-treated well.
In this assay, the cell potency (EC50) of each compound was determined from a ten point (1:3 serial dilution; top compound concentration of 10000 nM) titration curve using the following outlined procedure. Each well of a BD falcon collagen coated black/clear bottom 384-well plate was seeded with 4000 MCF-7 cells and allowed to attach for 5 hours. Media from cell plate was removed at 0.5 mm above the bottom of the plate and replaced with 30 μL of fresh media containing 1.2× compounds in 0.1% DMSO. […]

[1] = biological target: Full-length (FL)-PRMT5-MEP50 enzyme complex (Homo sapiens (Human), UniProt O14744); assay: PRMT5-MEP50 Enzyme Methylation Assay; assay type: biochemical; details: biotinylated H4R3(Me1) peptide, 15 μM SAM, top compound concentration 100000 nM
Description: PRMT5-MEP50 Enzyme Methylation Assay
PRMT5/MEP50 biochemical assay is a direct measurement of the methylation activity of the enzyme complex on a short peptide substrate derived from the N-terminus of H4 histone. Methylation experiment is performed with recombinant protein. The assessment of inhibitory effect (IC50) of small molecules is measured by the effectiveness of the compounds to inhibit this reaction.
In this assay, the potency (IC50) of each compound was determined from a twenty-point (1:2 serial dilution; top compound concentration of 100000 nM) titration curve using the following outlined procedure. To each well of a white ProxiPlus 384 well-plate, 100 nL of compound (1% DMSO in final assay volume of 10 μL) was dispensed, followed by the addition of 8 μL of 1× assay buffer (50 mM Bicine pH 8.0, 1 mM DTT, 0.004% Tween20, 0.01% BSA) containing 0.5 nM of Full-length (FL)-PRMT5-MEP50 enzyme complex (recombinant proteins from baculovirus-transfected Sf21 cells: FL-PRMT5; MW=[…] and FL-MEP50; MW=38614). Plates were sealed and placed in a 37° C. humidified chamber for 30 minutes pre-incubation with compounds. Subsequently, each reaction was initiated by the addition of 2 μL 1× assay buffer containing 75 nM biotinylated H4R3(Me1) peptide, and 15 μM S-(5′-Adenosyl)-L-Methionine Chloride (SAM). The final reaction in each well of 10 μL consists of 0.5 nM PRMT5-MEP50, 75 nM biotinylated-peptide, and 15 μM. Methylation reactions were allowed to proceed for 150 minutes in a sealed plate at 37° C. Reactions were immediately quenched by the addition of 1 μL of 10% formic acid. Plates were then frozen and shipped to SAMDI™ Tech Inc. to determine the percent conversion from […]. IC50 values were determined by 7 parameters biphasic fit model plotting the percent product conversion vs. (Log10) compound concentrations.

[2] = first IC50 of 7 parameters biphasic fit, read-out: Enzyme Methylation Assay IC50_1
[3] = second IC50 of 7 parameters biphasic fit, read-out: Enzyme Methylation Assay IC50_2

EC50 (PRMT5) [nM]	IC50 [1, 2] [nM]	IC50 [1, 3] [nM]	Structure (SMILES)
1590	10.8	8160	CC(=O)N1CCC(Nc2cc3c(cn2)CCN(C[C@@H](O)[C@@H]2Cc4ccccc4CN2)C3=O)CC1 (single isomer, unassigned) [Example 5]
–	481	≥ 100000	CC(=O)N1CCC(Nc2cc3c(cn2)CCN(C[C@@H](O)[C@@H]2Cc4ccccc4CN2)C3=O)CC1 (single isomer, unassigned) [Example 6]
